BCR signal inh: chronic active BCR signaling inhibition; ABC-DLBCL IkBa-CBG/CBR reporter, luminescence ratio, 4 h; Potency, µM (highest dose often 46.1 µM), hits mostly inhibitors; 340,000 compounds, 0.05% hits; AID 493014; active = well fitted inhibition curve with a large enough effect in the signal ratio, with a control signal flat, not every such curve was filed as active; inconclusive = small, poorly fitted or top-dose-only effect, or effect the other way, or a change in a side signal; the % refers to the signal ratio
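TMD8 human ABC-DLBCL cells with doxycycline-inducible IκBα–green luciferase fusion and unfused red luciferase, in 0.5% FBS medium; compounds up to 46 uM, 4 h at 37C. Green/red luminescence ratio, filter-overlap corrected, fitted to concentration-response curves.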
miR-21 reporter: miR-21 reporter, rising signal; Potency, µM (top dose mostly 38.3 µM); 340,000 tested, under 10 active; HeLa miR-21 FLuc reporter, luciferase, 48 h; active = well fitted rising curve with a large enough effect; inconclusive = small, poorly fitted or top-dose-only effect; inactive = no such curve, though single readings can be large or run the other way;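 note: miR-21 action dims this reporter so a rising signal means less miR-21 action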
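Luminescence from a firefly luciferase reporter carrying a miR-21 binding site downstream, stably expressed under a CMV promoter in HeLa cells that make miR-21 endogenously, reports miRNA modulation after 48 h compound exposure up to approximately 40uM final.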
Pin1 inhibitor: human Pin1 inhibition; Q13526; Pin1 FP peptide displacement, HiFluor488, 10 min; Potency, µM (series often up to 115 µM), actives largely listed as inhibitors; 390,000 compounds, 0.009% hits; AID 504891; active = well fitted inhibition curve with a large enough effect in the polarisation, with a control signal flat, not every such curve was filed as active; inconclusive = small, poorly fitted or top-dose-only effect, or effect the other way, or a change in a side signal; inactive = no such curve, though single readings can be large or run the other way; the % refers to the polarisation
PKM2 act: increases activity of human pyruvate kinase M2; P14618; purified PKM2, Kinase-Glo ATP luminescence, activation; response scale: 0% is enzyme alone, no compound; Potency, µM (titrated, usually from 57.5 µM), actives largely listed as activators; 260,000 compounds, 0.34% hits; also: nearly all actives have a fitted effect of over 55% in size
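Purified hPK-M2 (>95% pure) converted ADP (0.1 mM final) to ATP with 0.5 mM PEP in 50 mM imidazole pH7.2, KCl, MgCl2, Tween 20, BSA; 1 h at room temperature. ATP detected by Kinase-Glo luminescence.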
PINK1 expr mod: modulators of PINK1 expression; PINK1 immunofluorescence, high-content cytometry, 24 h; Potency, µM (series often up to 76.6 µM), most hits filed as activators; 410,000 compounds, 0.2% hits; active = well fitted activation curve with a large enough effect; inconclusive = small, poorly fitted or top-dose-only effect; cell line not stated here; also: nearly all actives have a fitted effect of over 65% in size
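PINK1 protein level read as immunofluorescence by microplate cytometer in a fixed, stained stable cell line after 24 h exposure to five compound concentrations, with CCCP as control.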
B2AR arrestin: recruits beta-arrestin to the human beta2-adrenergic receptor; 330,000 compounds, 0.02% hits; Potency, µM (doses to about 46.1 µM), most hits filed as activators; beta-arrestin recruitment to beta2AR, cell-based reporter; P07550; also: nearly all actives have a fitted effect of over 65% in size
HeLa viability: reduces HeLa cell viability in PKM2 activator counter-screen; shares compounds with PKM2 act; AID 1898; HeLa viability, CellTiter-Glo ATP luminescence, 24 h; 230 tested, under 10 active; activity change, negative = cytotoxicity, % at 57.5 µM
Of the large screens only hits and unclear results are named; the others gave an inactive call (follow-up assays come after a bar, where they were run). The list is not random: actives were taken first. Their share in the collection is about 0.46%. Unless noted, calls follow the shape of the dose curve; as a rule, active = well fitted curve in the direction sought with a large enough effect; inconclusive = small, poorly fitted or top-dose-only effect, or another doubt; inactive = no such curve, though single readings can be large; an effect the other way counts as inactive or inconclusive.

COc1ccc(-c2cc(-c3ccccc3)[n+](C)c(-c3ccccc3)c2)cc1	miR-21 reporter inconclusive, PINK1 expr mod inconclusive
COc1cc2nc(N(C)C)c(CNCCc3c[nH]c4ccccc34)cc2c(OC)c1OC	none (no result: BCR signal inh, miR-21 reporter, Pin1 inhibitor, PKM2 act, B2AR arrestin)
Cc1cc2ccccc2n1-c1ccc(C(=O)N2CCC(C(=O)NCc3ccc(Cl)cc3)CC2)s1	miR-21 reporter inconclusive (no result: BCR signal inh, PKM2 act, B2AR arrestin)
CCOC(=O)c1c(CSC(=N)N)n(C)c2cc(Br)c(OC(C)=O)cc12	BCR signal inh inconclusive, Pin1 inhibitor inconclusive, PKM2 act 16µM
Cc1[nH]c2ccccc2c1P(=S)(c1ccccc1)c1ccccc1	none (no result: BCR signal inh, miR-21 reporter, PKM2 act, PINK1 expr mod, B2AR arrestin)
CCOC(=O)C1(CCc2ccccc2)CCN(Cc2cccc3c2OCO3)CC1	BCR signal inh inconclusive, PKM2 act 32µM, PINK1 expr mod inconclusive
CCc1nn2c(=O)c(C)c(N3CCNCC3)nc2s1	none (no result: BCR signal inh, miR-21 reporter, PKM2 act, PINK1 expr mod, B2AR arrestin)
O=C1NC(=O)N(c2ccc3c(c2)OCO3)C(=O)/C1=C/c1cccs1	BCR signal inh inconclusive, PKM2 act 11µM
Nc1c(C(=O)NCC2CCCO2)c2nc3ccccc3nc2n1Cc1ccco1 (stereo unspecified)	BCR signal inh inconclusive, PKM2 act 18µM | HeLa viability inactive
S=P(c1ccccc1)(c1ccccc1)c1c[nH]c2ccccc12	none (no result: BCR signal inh, miR-21 reporter, PKM2 act, PINK1 expr mod, B2AR arrestin)
